# Assay results: PubChem BioAssay AID463115 (University of Pittsburgh Molecular Library Screening Center, 2010)
# Amino acid sequences for entries named in this document (tags omitted).
# UniProt P09958, whole entry, looked up: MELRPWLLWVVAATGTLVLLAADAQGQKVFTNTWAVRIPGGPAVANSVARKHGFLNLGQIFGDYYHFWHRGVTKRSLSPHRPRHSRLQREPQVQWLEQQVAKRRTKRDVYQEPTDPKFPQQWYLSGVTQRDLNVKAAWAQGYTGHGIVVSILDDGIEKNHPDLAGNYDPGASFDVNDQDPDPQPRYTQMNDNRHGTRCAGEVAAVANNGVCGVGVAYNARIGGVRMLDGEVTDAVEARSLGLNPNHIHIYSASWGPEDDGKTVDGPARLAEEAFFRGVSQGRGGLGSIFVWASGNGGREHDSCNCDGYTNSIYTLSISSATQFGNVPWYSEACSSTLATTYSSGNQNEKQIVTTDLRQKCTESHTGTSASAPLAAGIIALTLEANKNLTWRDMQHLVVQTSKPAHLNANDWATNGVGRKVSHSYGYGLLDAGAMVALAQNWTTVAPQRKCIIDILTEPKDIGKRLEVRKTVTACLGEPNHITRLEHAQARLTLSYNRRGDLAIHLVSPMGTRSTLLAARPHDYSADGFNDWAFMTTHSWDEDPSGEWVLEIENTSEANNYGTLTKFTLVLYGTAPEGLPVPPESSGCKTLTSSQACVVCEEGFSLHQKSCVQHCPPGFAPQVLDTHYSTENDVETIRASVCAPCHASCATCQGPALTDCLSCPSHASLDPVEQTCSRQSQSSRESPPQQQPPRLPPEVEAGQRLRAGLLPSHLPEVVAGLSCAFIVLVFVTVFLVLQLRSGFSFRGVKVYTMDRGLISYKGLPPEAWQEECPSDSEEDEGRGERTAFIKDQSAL
# Only a part is listed here, and it is no random draw. Active and inactive are the calls of the source. Cut-off read from the data, not from the text of the source: active = inhibition above about 25%; inactive = the rest.
# Target: Furin (Homo sapiens) (UniProt P09958)
# Test: furin protease activity blockers – biochemical, fluorescence intensity, primary screen (AID 463115)
# Settings: purified furin, fluorogenic substrate cleavage, stronger effect = higher value
structure (smiles),measurement,setting,value
O=[N+]([O-])c1ncn(CCn2ncnc2[N+](=O)[O-])n1,inhibition,at 30 µM unless noted,inactive: -30.6%
CC(C)(C)C(=O)NC(Sc1ccncn1)C(Cl)(Cl)Cl (stereo not given),inhibition,at 30 µM unless noted,inactive: -16.8%
O=C(O)CNc1ccc([As](=O)(O)O)cc1,inhibition,at 30 µM unless noted,inactive: -19.8%
O=[N+]([O-])c1cccc(NC2=NCC(CBr)S2)c1 (stereo not given),inhibition,at 30 µM unless noted,inactive: -4.69%
O=C(Nc1cc([As](=O)(O)O)ccc1O)c1ccccc1,inhibition,at 30 µM unless noted,inactive: -14.6%
CCN(/C(=N/P(=O)(N1CCOCC1)N1CCOCC1)N1CCOCC1)c1ccc(OC)cc1,inhibition,at 30 µM unless noted,inactive: -26.1%
C[N+]1=C2C=CC=CC=C2SC12C([N+](=O)[O-])=CC([N+](=O)[O-])=C[C-]2[N+](=O)[O-] (stereo not given),inhibition,at 30 µM unless noted,inactive: -16.7%
Nc1ccc([As](=O)(O)c2ccc(N)cc2)cc1,inhibition,at 30 µM unless noted,inactive: -13.3%
CC1CCN(C(=O)Oc2c(Cl)cc(Cl)c3cccnc23)CC1,inhibition,at 30 µM unless noted,inactive: 0.208% [at 20 µM]
CN(C)C(=O)OCCc1n(C)cc[n+]1C,inhibition,at 30 µM unless noted,inactive: -19.9%
CC(C)=N/N=C(\N)N[N+](=O)[O-],inhibition,at 30 µM unless noted,inactive: -29.9%
COc1ccc(C2=NCC(CBr)S2)cc1 (stereo not given),inhibition,at 30 µM unless noted,inactive: -20.6%
O=[N+]([O-])c1cc([N+](=O)[O-])c(CCNc2ccccc2)c([N+](=O)[O-])c1,inhibition,at 30 µM unless noted,inactive: -18.2%
CCc1nc2c(n1)c1c(non1O)c1c2no[n+]1[O-],inhibition,at 30 µM unless noted,inactive: -10.3%
Cc1ccc(NP(=O)(Oc2ccccc2)Oc2ccccc2)nc1,inhibition,at 30 µM unless noted,inactive: -11.3%
CC(=O)N1C2C3N(C(C)=O)C1C1N(C(C)=O)C(C(N1C(C)=O)N3C(C)=O)N2C(C)=O,inhibition,at 30 µM unless noted,inactive: -21% [at 20 µM]
O=[N+]([O-])c1cccc2n[nH]nc12,inhibition,at 30 µM unless noted,inactive: 0.2% [at 20 µM]
Cc1c2non([O-])c-2c(C)[n+](=O)[n+]1[O-],inhibition,at 30 µM unless noted,inactive: -15.6%
O=C(NC(Sc1ccncn1)C(Cl)(Cl)Cl)c1ccccc1 (stereo not given),inhibition,at 30 µM unless noted,inactive: -6.83%
Oc1ccccc1CNc1ccccn1,inhibition,at 30 µM unless noted,inactive: -14.3% [at 20 µM]
CC(C)CC(=O)NC(Sc1ccc(Cl)cc1)C(Cl)(Cl)Cl (stereo not given),inhibition,at 30 µM unless noted,inactive: -17.5% [at 20 µM]
Nc1cc(N)c2nonc2c1[N+](=O)[O-],inhibition,at 30 µM unless noted,inactive: -3.76%
Cc1ccc(N/C(=N/P(=O)(N2CCOCC2)N2CCOCC2)N2CCOCC2)cc1,inhibition,at 30 µM unless noted,inactive: -15%
NC(=O)c1cc([N+](=O)[O-])cc([N+](=O)[O-])c1N,inhibition,at 30 µM unless noted,inactive: -5.71%
Clc1ccc(Cl)c(NC2=NCC(CBr)S2)c1 (stereo not given),inhibition,at 30 µM unless noted,inactive: -29.9%
CN1CCCC(OC(=O)C(c2ccccc2)c2ccccc2)C1 (stereo not given),inhibition,at 30 µM unless noted,inactive: -26.9% [at 20 µM]
Cc1ccc(OP(=O)(Nc2nccs2)Oc2ccc(C)cc2)cc1,inhibition,at 30 µM unless noted,inactive: -28.5%
COc1ccccc1OP(=O)(Nc1ccc(C)cn1)Oc1ccccc1OC,inhibition,at 30 µM unless noted,inactive: -24.9%
Nc1cccc2ccc([As](=O)(O)O)cc12,inhibition,at 30 µM unless noted,inactive: -27.3%
CCN(N=Nc1nonc1N)c1nonc1N,inhibition,at 30 µM unless noted,inactive: -22.1%
O=P(Nc1nc2ccc(Cl)cc2s1)(c1ccccc1)c1ccccc1,inhibition,at 30 µM unless noted,inactive: -32.3%
O=C(O)c1ccccc1[As](=O)(O)O,inhibition,at 30 µM unless noted,inactive: -6.7%
CC(=O)Nc1ccc([As](=O)(O)O)cc1,inhibition,at 30 µM unless noted,inactive: -29.6%
Cc1ccc(NP(=O)(Oc2ccccc2F)Oc2ccccc2F)nc1,inhibition,at 30 µM unless noted,inactive: 2.51%
CCOP(=O)(Nc1ccccc1)OCC,inhibition,at 20 µM,inactive: -14%
same,inhibition,at 30 µM,inactive: -15.3%
Cc1cc(SC(NC(=O)c2ccc(F)cc2)C(Cl)(Cl)Cl)ncn1 (stereo not given),inhibition,at 30 µM unless noted,inactive: -17.8%
CCC(=O)N1C2C3N(C(=O)CC)C1C1N(C(=O)CC)C(C(N1C(=O)CC)N3C(=O)CC)N2C(=O)CC,inhibition,at 30 µM unless noted,inactive: -16% [at 20 µM]
CC(=O)NC(SC(=S)N(CC(C)C)CC(C)C)C(Cl)(Cl)Cl (stereo not given),inhibition,at 30 µM unless noted,inactive: -4.85%
Cc1ccc(OP(=O)(Nc2ccccn2)Oc2ccc(C)cc2)cc1,inhibition,at 30 µM unless noted,inactive: -16.5%
COC(=O)c1cc2c(s1)N=C(c1ccccc1)N(C)P2(=O)N1CCOCC1 (stereo not given),inhibition,at 30 µM unless noted,inactive: 1.02%
CN(C)C(=O)Oc1noc2ccccc12,inhibition,at 30 µM unless noted,inactive: -22.9%
O=c1c2cc([N+](=O)[O-])ccc2[nH]c2c([N+](=O)[O-])cc([N+](=O)[O-])cc12,inhibition,at 30 µM unless noted,inactive: -30%
Cc1ccccc1OP(=O)(Nc1ccccn1)Oc1ccccc1C,inhibition,at 30 µM unless noted,inactive: -23.8%
Cc1ccc(NP(=O)(Oc2cccc(C)c2)Oc2cccc(C)c2)nc1,inhibition,at 30 µM unless noted,inactive: -10.2%
CCOC(=O)NC(Sc1ccccc1)C(Cl)(Cl)Cl (stereo not given),inhibition,at 30 µM unless noted,inactive: -8.09% [at 20 µM]
c1ccc(-c2nn[nH]n2)c(-c2nn[nH]n2)c1,inhibition,at 30 µM unless noted,inactive: -27.5%
O=C(NC1CCS(=O)(=O)C1)NP(=S)(Oc1ccccc1)Oc1ccccc1 (stereo not given),inhibition,at 30 µM unless noted,inactive: -21.4%
CCNC(=S)/N=C(\N)N[N+](=O)[O-],inhibition,at 30 µM unless noted,inactive: -20.5%
C[C@@H]1C=CCP(=O)(Oc2ccccc2)O1 (stereo not given in full),inhibition,at 30 µM unless noted,inactive: -30.4%
